Source: article PMC9866339, “In Silico and In Vitro Study of Janus Kinases Inhibitors from Naphthoquinones” (Molecules, 2023)

System: HEL cells
Test: Presto Blue cytotoxicity assay on HEL cells
Details: 10 μM, result in words

Structure (SMILES): O=C1C=CC(=O)c2c(O)cccc21 [Juglone, juglone]
- Cytotoxicity screening on HEL cells: high cytotoxicity
